Therm_solubility data for one compound are collected here from ChEMBL document CHEMBL4325833, “Discovery of a Potent, Selective, and Brain-Penetrant Small Molecule that Activates the Orphan Receptor GPR88 and Reduces Alcohol Intake” (J Med Chem, 2018).

The nature of this data set: Thermodynamic solubility of the compound at pH 7.4 after 24 hrs by LC-MS/MS analysis. Type of data set: physicochemical. The settings on record: buffer, pH 7.4, 24 h.

SMILES strings stand for the structures.

`CCCc1ccc(-c2ccc(N(C[C@@H](N)[C@@H](C)CC)C(=O)[C@@H]3C[C@H]3c3ccccn3)cc2)cc1` registered a Therm_solubility of 46.1 µg/mL.
